Results taken from US20250195530A1, “POLQ INHIBITORS” (ASTRAZENECA AB, priority 2022, published 2025).

Protein sequences, listed by entry. Tags and fused reporters are not part of them. Residues count along the entry.
UniProt O75417, 1780-2590: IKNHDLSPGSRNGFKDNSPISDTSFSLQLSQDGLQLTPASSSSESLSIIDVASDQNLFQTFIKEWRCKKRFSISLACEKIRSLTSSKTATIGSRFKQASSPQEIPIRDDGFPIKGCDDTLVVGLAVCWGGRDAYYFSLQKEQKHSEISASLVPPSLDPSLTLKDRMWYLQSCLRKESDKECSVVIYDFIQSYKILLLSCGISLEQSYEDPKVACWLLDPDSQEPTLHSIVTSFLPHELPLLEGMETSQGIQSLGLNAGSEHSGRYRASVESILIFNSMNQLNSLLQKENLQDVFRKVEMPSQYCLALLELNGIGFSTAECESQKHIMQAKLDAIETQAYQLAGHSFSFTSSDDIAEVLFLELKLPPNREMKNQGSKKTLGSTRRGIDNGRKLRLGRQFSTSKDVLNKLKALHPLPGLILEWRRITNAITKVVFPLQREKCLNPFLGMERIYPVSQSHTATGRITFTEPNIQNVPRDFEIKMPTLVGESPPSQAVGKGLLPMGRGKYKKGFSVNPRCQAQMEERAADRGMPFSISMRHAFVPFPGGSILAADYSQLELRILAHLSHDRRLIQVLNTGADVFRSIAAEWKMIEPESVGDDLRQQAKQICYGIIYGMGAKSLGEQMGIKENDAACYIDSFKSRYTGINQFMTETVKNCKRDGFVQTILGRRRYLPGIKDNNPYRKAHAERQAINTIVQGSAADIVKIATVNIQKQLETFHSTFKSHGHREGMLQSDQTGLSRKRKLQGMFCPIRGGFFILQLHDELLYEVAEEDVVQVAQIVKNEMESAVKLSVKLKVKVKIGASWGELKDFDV

Target: isolated polymerase domain (I1780-V2590) of DNA polymerase theta (Polθ) (Homo sapiens (Human), UniProt O75417)

SMILES | IC50 [nM]
CC1(Oc2ncnc3c2nc(-c2cccc(O[C@H]4C[C@@H](C(=O)O)C4)c2Cl)n3Cc2cc(Cl)ccc2C#N)CC1 [Example U84, (1s,3s)-3-(2-chloro-3-(9-(5-chloro-2-cyanobenzyl)-6-(1-methylcyclopropoxy)-9H-purin-8-yl)phenoxy)cyclobutane-1-carboxylic acid] | 3.98
CC1(Oc2ncnc3c2nc(-c2ccc(OCCN)cc2Cl)n3Cc2ccccc2)CC1 [Example D23, 2-(4-(9-benzyl-6-(1-methylcyclopropoxy)-9H-purin-8-yl)-3-chlorophenoxy)ethan-1-amine] | 5.01
CN1CCN(CCOc2ccc(-c3nc4c(OC5(C)CC5)ncnc4n3Cc3cccc(Cl)c3)c(Cl)c2)CC1 [Example E2, 8-(2-chloro-4-(2-(4-methylpiperazin-1-yl)ethoxy)phenyl)-9-(3-chlorobenzyl)-6-(1-methylcyclopropoxy)-9H-purine] | 2.51
CC1(Oc2ncnc3c2nc(-c2ccc(O[C@H]4C[C@@H](C(=O)O)C4)cc2Cl)n3Cc2cccc(Cl)c2)CC1 [Example T254, (1s,3s)-3-(3-chloro-4-(9-(3-chlorobenzyl)-6-(1-methylcyclopropoxy)-9H-purin-8-yl)phenoxy)cyclobutane-1-carboxylic acid] | 5.01
CC1(Oc2ncnc3c2nc(-c2ccc(OCCN4CC5(C4)CS(=O)(=O)C5)cc2Cl)n3Cc2ccccc2)CC1 [Example H20, 6-(2-(4-(9-benzyl-6-(1-methylcyclopropoxy)-9H-purin-8-yl)-3-chlorophenoxy)ethyl)-2-thia-6-azaspiro[3.3]heptane 2,2-dioxide] | 2.51
CCc1ccnc(Cn2c(-c3ccc(OCCN4CCNCC4)cc3Cl)nc3c(OC4(C)CC4)ncnc32)c1 [Example S4, 8-(2-chloro-4-(2-(piperazin-1-yl)ethoxy)phenyl)-9-((4-ethylpyridin-2-yl)methyl)-6-(1-methylcyclopropoxy)-9H-purine] | 2
CC1(Oc2ncnc3c2nc(-c2ccc(OCCN4CCNCC4)cc2Cl)n3Cc2ccccc2)CC1 [Example 6, 9-Benzyl-8-(2-chloro-4-(2-(piperazin-1-yl)ethoxy)phenyl)-6-(1-methylcyclopropoxy)-9H-purine] | 3.16
CC(C)Oc1ccc2c(c1)nc(-c1ccc(OCCCN)cc1Cl)n2Cc1ccccc1 [Example 3, 3-(4-(1-Benzyl-5-isopropoxy-1H-benzo[d]imidazol-2-yl)-3-chlorophenoxy)propan-1-amine] | 2
Cc1cc(OCCCN2CCOCC2)ncc1-c1nc2c(OC3(C)CC3)ncnc2n1Cc1ccccc1 [Example G7, 4-(3-((5-(9-benzyl-6-(1-methylcyclopropoxy)-9H-purin-8-yl)-4-methylpyridin-2-yl)oxy)propyl)morpholine] | 3.16
CC(=O)N1CCN(CCCOc2cc(C)c(-c3nc4c(OC5(C)CC5)ncnc4n3Cc3ccccc3)cn2)CC1 [Example G3, 1-(4-(3-((5-(9-benzyl-6-(1-methylcyclopropoxy)-9H-purin-8-yl)-4-methylpyridin-2-yl)oxy)propyl)piperazin-1-yl)ethan-1-one] | 2
CC(C)Oc1ccc2c(n1)nc(-c1ccc(OCCN3CCNCC3)cc1Cl)n2Cc1ccccc1 [Example 8, 1-Benzyl-2-(2-chloro-4-(2-(piperazin-1-yl)ethoxy)phenyl)-5-isopropoxy-1H-imidazo[4,5-b]pyridine] | 7.94
Cc1ccnc(Cn2c(-c3ccc(O[C@H]4C[C@H](O)C4)cc3Cl)nc3c(OC4(C)CC4)ncnc32)c1 [Example T199, (1r,3r)-3-(3-chloro-4-(6-(1-methylcyclopropoxy)-9-((4-methylpyridin-2-yl)methyl)-9H-purin-8-yl)phenoxy)cyclobutan-1-ol] | 3.98
CC1(Oc2ncnc3c2nc(-c2ccc(OCCN4CCNCC4)cc2Cl)n3CCc2ccccc2)CC1 [Example J12, 8-(2-chloro-4-(2-(piperazin-1-yl)ethoxy)phenyl)-6-(1-methylcyclopropoxy)-9-phenethyl-9H-purine] | 2
Cc1cc(N2CC(N)C2)ncc1-c1nc2c(OC3(C)CC3)ncnc2n1Cc1ccccc1 [Example 19, 1-(5-(9-Benzyl-6-(1-methylcyclopropoxy)-9H-purin-8-yl)-4-methylpyridin-2-yl)azetidin-3-amine] | 3.16
Cc1ccnc(Cn2c(-c3ccc(OC[C@H](C)O)cc3Cl)nc3c(OC4(C)CC4)ncnc32)c1 [Example 36, (S)-1-(3-Chloro-4-(6-(1-methylcyclopropoxy)-9-((4-methylpyridin-2-yl)methyl)-9H-purin-8-yl)phenoxy)propan-2-ol] | 6.31
CC(=O)NCCCOc1ccc(-c2nc3cc(OC(C)C)ccc3n2Cc2ccccc2)c(Cl)c1 [Example A3, N-(3-(4-(1-benzyl-5-isopropoxy-1H-benzo[d]imidazol-2-yl)-3-chlorophenoxy)propyl)acetamide] | 2
CC1(Oc2ncnc3c2nc(-c2ccc(OCCCC(=O)O)cc2Cl)n3Cc2cccc(Cl)c2)CC1 [Example 44, 4-(3-Chloro-4-(9-(3-chlorobenzyl)-6-(1-methylcyclopropoxy)-9H-purin-8-yl)phenoxy)butanoic acid] | 6.31

SMILES | IC50 [nM]
CC1(Oc2ncnc3c2nc(-c2ccc(CC(N)=O)cc2Cl)n3Cc2cc(Cl)ccn2)CC1 [Example 38, 2-(3-Chloro-4-(9-((4-chloropyridin-2-yl)methyl)-6-(1-methylcyclopropoxy)-9H-purin-8-yl)phenyl)acetamide] | 10
C#CC1(Oc2ncnc3c2nc(-c2ccc(OCCN4CCNCC4)cc2Cl)n3Cc2ccccc2)CC1 [Example Q1, 9-benzyl-8-(2-chloro-4-(2-(piperazin-1-yl)ethoxy)phenyl)-6-(1-ethynylcyclopropoxy)-9H-purine] | 2.51
CC(=O)NCCCOc1ccc(-c2nc3c(OC4(C)CC4)ncnc3n2Cc2ccccc2)c(Cl)c1 [Example D7, N-(3-(4-(9-benzyl-6-(1-methylcyclopropoxy)-9H-purin-8-yl)-3-chlorophenoxy)propyl)acetamide] | 2.51
CC1(Oc2ncnc3c2nc(-c2ccc(OCCN4CCN[C@@H](CO)C4)cc2Cl)n3Cc2ccccc2)CC1 [Example R18, (R)-(4-(2-(4-(9-benzyl-6-(1-methylcyclopropoxy)-9H-purin-8-yl)-3-chlorophenoxy)ethyl)piperazin-2-yl)methanol] | 2
COc1ccc(Cl)cc1Cn1c(-c2cccc(O[C@H]3CC[C@H](C(=O)O)CC3)c2Cl)nc2c(OC3(C)CC3)ncnc21 [Example U38, (1r,4r)-4-(2-chloro-3-(9-(5-chloro-2-methoxybenzyl)-6-(1-methylcyclopropoxy)-9H-purin-8-yl)phenoxy)cyclohexane-1-carboxylic acid] | 5.01
Cc1cc(OC2CNC2)ncc1-c1nc2c(OC3(C)CC3)ncnc2n1Cc1ccccc1 [Example G17, 8-{6-[(azetidin-3-yl)oxy]-4-methylpyridin-3-yl}-9-benzyl-6-[(1-methylcyclopropyl)oxy]-9H-purine] | 10
CC1(Oc2ncnc3c2nc(-c2ccc(CN)cc2Cl)n3Cc2ccccc2)CC1 [Example N7, (4-(9-benzyl-6-(1-methylcyclopropoxy)-9H-purin-8-yl)-3-chlorophenyl)methanamine] | 3.98
CC1(Oc2ncnc3c2nc(-c2ccc(O[C@H]4CC[C@@H](C(=O)O)CC4)cc2Cl)n3Cc2ccccc2C#N)CC1 [Example U16, (1s,4s)-4-(3-chloro-4-(9-(2-cyanobenzyl)-6-(1-methylcyclopropoxy)-9H-purin-8-yl)phenoxy)cyclohexane-1-carboxylic acid] | 6.31
Cc1cc(OCCN2CCNCC2)ncc1-c1nc2c(OC3(C)CC3)ncnc2n1Cc1cccc(Cl)c1 [Example J6, 9-(3-chlorobenzyl)-8-(4-methyl-6-(2-(piperazin-1-yl)ethoxy)pyridin-3-yl)-6-(1-methylcyclopropoxy)-9H-purine] | 2
CCCCCC(=O)N1CCN(CCOc2ccc(-c3nc4c(OC(C)C)ncnc4n3Cc3ccccc3)c(C)c2)CC1 [Example B5, 1-(4-(2-(4-(9-benzyl-6-isopropoxy-9H-purin-8-yl)-3-methyl-phenoxy)ethyl)piperazin-1-yl)hexan-1-one] | 5.01
CC1(Oc2ncnc3c2nc(-c2ccc(OCCN4CCNCC4)c(Cl)c2Cl)n3Cc2ccccc2)CC1 [Example J1, 9-benzyl-8-(2,3-dichloro-4-(2-(piperazin-1-yl)ethoxy)phenyl)-6-(1-methylcyclopropoxy)-9H-purine] | 6.31
CN1CCN(CCOc2ccc(-c3nc4c(OC5(C)CC5)ncnc4n3Cc3ccccc3)c(F)c2)CC1 [Example H2, 9-benzyl-8-(2-fluoro-4-(2-(4-methylpiperazin-1-yl)ethoxy)phenyl)-6-(1-methylcyclopropoxy)-9H-purine] | 2
CC1(Oc2ncnc3c2nc(-c2ccc(OC[C@H]4C[C@@H](C(=O)O)C4)cc2Cl)n3Cc2cccc(Cl)c2)CC1 [Example T409, (1s,3s)-3-((3-chloro-4-(9-(3-chlorobenzyl)-6-(1-methylcyclopropoxy)-9H-purin-8-yl)phenoxy)methyl)cyclobutane-1-carboxylic acid] | 6.31
CC1(Oc2ncnc3c2nc(-c2ccc(OCCCN4CC(O)C4)cc2Cl)n3Cc2ccccc2)CC1 [Example H17, 1-(3-(4-(9-benzyl-6-(1-methylcyclopropoxy)-9H-purin-8-yl)-3-chlorophenoxy)propyl)azetidin-3-ol] | 2
Cc1cc(N2CCC(N)CC2)ncc1-c1nc2c(OC3(C)CC3)ncnc2n1Cc1ccccc1 [Example F1, 1-(5-(9-benzyl-6-(1-methylcyclopropoxy)-9H-purin-8-yl)-4-methylpyridin-2-yl)piperidin-4-amine] | 3.98
CC1(Oc2ccnc3c2nc(-c2ccc(OCCN4CCNCC4)cc2Cl)n3Cc2cc(Cl)ccn2)CC1 [Example 14, 2-(2-Chloro-4-(2-(piperazin-1-yl)ethoxy)phenyl)-3-((4-chloropyridin-2-yl)methyl)-7-(1-methylcyclopropoxy)-3H-imidazo[4,5-b]pyridine] | 2.51
CC1(Oc2ncnc3c2nc(-c2ccc(OCCN4CCNCC4)cc2Cl)n3CCc2cccnc2)CC1 [Example J8, 8-(2-chloro-4-(2-(piperazin-1-yl)ethoxy)phenyl)-6-(1-methylcyclopropoxy)-9-(2-(pyridin-3-yl)ethyl)-9H-purine] | 100
